Broadly, the Kd is the free concentration of one partner at which half of the binding sites on the other are occupied at equilibrium, for simple one-to-one binding. Higher therefore signals weaker binding.

Our source for the Kd values is PMC6222444, “Structural Basis for the Interaction between p53 Transactivation Domain and the Mediator Subunit MED25” (Molecules : A Journal of Synthetic Chemistry and Natural …, 2018).

The assay addresses T1, MED25 activator interaction domain (MED25 ACID, residues 394-543) (human, UniProt Q71SY5 394-543).
T1 construct: Uniformly 15N-labelled in the NMR experiments where it was observed; unlabelled elsewhere; No removal of the His6 tag is described; source: E. coli BL21(DE3)RIL, purified (Ni-NTA, HiTrap-SP, Superdex-75)
T1 sequence (looked up): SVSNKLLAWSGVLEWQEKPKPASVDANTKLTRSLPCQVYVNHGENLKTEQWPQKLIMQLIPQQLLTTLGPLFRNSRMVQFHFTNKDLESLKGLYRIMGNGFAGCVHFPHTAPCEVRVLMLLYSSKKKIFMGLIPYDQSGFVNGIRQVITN
The assay can be described thus: ITC; 600 µM MED25 ACID titrated into 20 µM p53TAD; 25 mM sodium phosphate, 100 mM NaCl, pH 7.0, 25 °C; one-site binding fit. Particulars: both partners purified.

B1: p53 transactivation domain (p53TAD, […]) (domain or fragment)
chain: not shown
notes: Uniformly 15N-labelled in the NMR experiment where it was observed; unlabelled elsewhere; also called full-length p53TAD; source: E. coli BL21(DE3)RIL, purified (GST column, thrombin cleavage, HiTrap-Q, Superdex-75); not shown: GST, N-terminal, cleaved
Molecule B1 had a Kd of 800 ± 100 nM.
